Source: ChEMBL document CHEMBL4270587, “Difuran-substituted quinoxalines as a novel class of PI3Kα H1047R mutant inhibitors: Synthesis, biological evaluation and structure-activity relationship” (Eur J Med Chem, 2018)

Legend:
[1] = organism: Homo sapiens; experiment: Selectivity index, ratio of EC50 for inhibition of recombinant full length PI3K p85alpha/p110alpha H1047R mutant (unknown origin) expressed in baculovirus infected sf9 cells to EC50 for inhibition of recombinant full length PI3K p110alpha/p85alpha (unknown origin) expressed in baculovirus infected sf9 cells
[2] = organism: Homo sapiens; experiment: Selectivity ratio of EC50 for inhibition of PI3K-beta (unknown origin) to EC50 for inhibition of recombinant full length PI3K p110alpha/p85alpha (unknown origin) expressed in baculovirus infected sf9 cells
[3] = organism: Homo sapiens; experiment: Selectivity ratio of EC50 for inhibition of PI3K-gamma (unknown origin) to EC50 for inhibition of recombinant full length PI3K p110alpha/p85alpha (unknown origin) expressed in baculovirus infected sf9 cells
[4] = organism: Homo sapiens; experiment: Selectivity ratio of EC50 for inhibition of PI3K-delta (unknown origin) to EC50 for inhibition of recombinant full length PI3K p110alpha/p85alpha (unknown origin) expressed in baculovirus infected sf9 cells

**Q.** For `Clc1cc(Cl)c2nc(-c3ccco3)c(-c3ccco3)nc2c1`, which Ratio EC50 [1] is on record?
**A.** 1.39

**Q.** Which results are given for `Fc1ccccc1-c1cc2nc(-c3ccco3)c(-c3ccco3)nc2cc1Br`?
**A.** Ratio EC50 [1]: 1.47; Ratio EC50 [2]: > 40; Ratio EC50 [3]: > 100; Ratio EC50 [4]: > 100

**Q.** How did the Ratio EC50 [1] turn out when `FC(F)(F)c1ccccc1-c1ccc2nc(-c3ccco3)c(-c3ccco3)nc2c1` was run?
**A.** 0.92

**Q.** With `FC(F)(F)c1ccccc1-c1cc2nc(-c3ccco3)c(-c3ccco3)nc2cc1Br` as the compound, how does the Ratio EC50 [1] read?
**A.** 1.74

**Q.** How did the Ratio EC50 [1] turn out when `Brc1ccc2nc(-c3ccco3)c(-c3ccco3)nc2c1` was run?
**A.** 1.21

**Q.** `c1ccc(-c2ccc3nc(-c4ccco4)c(-c4ccco4)nc3c2)cc1` was tested. Which Ratio EC50 [1] did it give?
**A.** 3.83
